{"sequences": {"note": "Chains of the proteins cited; added tags and fusions are not shown. Residues count along the entry.", "UniProt P55212, 24-179 limits assumed": "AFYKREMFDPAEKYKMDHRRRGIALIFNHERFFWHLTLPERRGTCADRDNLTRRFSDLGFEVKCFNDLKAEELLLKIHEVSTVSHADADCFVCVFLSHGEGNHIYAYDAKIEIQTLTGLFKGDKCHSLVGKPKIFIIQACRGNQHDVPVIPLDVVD", "UniProt P55212, 194-293 limits assumed": "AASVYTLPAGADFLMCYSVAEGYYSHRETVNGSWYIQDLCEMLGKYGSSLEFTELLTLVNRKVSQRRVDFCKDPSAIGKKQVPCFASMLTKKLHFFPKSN"}, "source": "PubChem BioAssay AID686996", "about": "(Broad Institute, 2013)", "note": "The list shows a part of the results, in another mix than the full data. Calls of active or inactive are those of the source.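 How the source made its calls: active means mean inhibition across replicates at least about 35%, with every replicate also reaching that limit (limit read from the data); inconclusive means only one of the two criteria met; inactive means neither criterion met.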", "data": [{"target": "Caspase-6 (Homo sapiens) (UniProt P55212)", "test": "inhibition of CASP6 peptide cleavage – biochemical, VEID-R110 fluorescence, single point, set 2, primary screen (AID 686996);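 further: 0% = median of neutral control wells and 100% = no fluorescence left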", "details": "purified caspase-6, Z-VEID-R110 cleavage fluorescence; at 12.5 µM; hits give high values", "values": [{"molecule": "O=c1[nH]c2ccccc2n1C1CCN(C(c2cccs2)c2nnnn2C2CCCCC2)CC1", "note": "(stereo not given)", "inhibition": "inactive: -0.023%"}, {"molecule": "COc1ccc(C(=O)NCC2(N3CCOCC3)CCCCC2)cc1OC", "inhibition": "inactive: 1.49%"}, {"molecule": "O=c1[nH]c2ccccc2n1C1CCN(C(c2ccnc3ccccc23)c2nnnn2C2CCCC2)CC1", "note": "(stereo not given)", "inhibition": "inactive: -0.608%"}, {"molecule": "CCCCn1nnnc1C(c1ccccc1)N1CCC(n2c(=O)[nH]c3ccccc32)CC1", "note": "(stereo not given)", "inhibition": "inactive: 0.184%"}, {"molecule": "COc1cc(C(=O)NCC2(N3CCOCC3)CCCCC2)cc(OC)c1C", "inhibition": "inactive: 4.31%"}, {"molecule": "O=C(NCC1(N2CCOCC2)CCCCC1)c1cc(Br)ccc1Cl", "inhibition": "inactive: -4.1%"}, {"molecule": "O=c1[nH]c2ccccc2n1C1CCN(C(c2cccs2)c2nnnn2C2CCCC2)CC1", "note": "(stereo not given)", "inhibition": "inactive: -1.81%"}, {"molecule": "CCCCn1nnnc1C(c1cccc(OC)c1OC)N1CCC(n2c(=O)[nH]c3ccccc32)CC1", "note": "(stereo not given)", "inhibition": "inactive: 4.28%"}, {"molecule": "CCOC(=O)N1CCC(Nc2ccc(C)cc2)CC1", "inhibition": "inactive: -6.18%"}, {"molecule": "COc1cccc(C(c2nnnn2C(C)(C)C)N2CCC(n3c(=O)[nH]c4ccccc43)CC2)c1OC", "note": "(stereo not given)", "inhibition": "inactive: 1.3%"}, {"molecule": "N#Cc1ccc(C(=O)NCC2(N3CCCCC3)CCCCC2)cc1", "inhibition": "inactive: -2.7%"}, {"molecule": "CC(C)(C)OC(=O)N1CCC(N(C(=O)c2ccccc2)c2ccc(Cl)cc2)CC1", "inhibition": "inactive: 2.42%"}, {"molecule": "CC(C)(C)n1nnnc1C(c1cccc2ccccc12)N1CCC(n2c(=O)[nH]c3ccccc32)CC1", "note": "(stereo not given)", "inhibition": "inactive: 6.03%"}, {"molecule": "CN(C)C1(CNC(=O)c2cccc(C#N)c2)CCCCC1", "inhibition": "inactive: 1.3%"}, {"molecule": "C/C(N)=N\\P(=O)(Oc1ccccc1)Oc1ccccc1", "inhibition": "inactive: -0.975%"}, {"molecule": "CCCN1CCC(Nc2cc(OC)cc(OC)c2)CC1", "inhibition": "inactive: -84.3%"}, {"molecule": "O=c1[nH]c2ccccc2n1C1CCN(C(c2ccccc2)c2nnnn2C2CCCC2)CC1", "note": "(stereo not given)", "inhibition": "inactive: -1.92%"}, {"molecule": "Cc1cc(N(CCCl)CCCl)ccc1C=O", "inhibition": "inactive: -0.497%"}, {"molecule": "Cc1ccc(C(=O)NCC2(N3CCCCC3)CCCCC2)o1", "inhibition": "inactive: -4.09%"}, {"molecule": "Fc1ccccc1NC1CCN(Cc2ccccc2)CC1", "inhibition": "inactive: -3.14%"}, {"molecule": "Cc1ccc(NC2(C#N)CCN(Cc3ccccc3)CC2)cc1", "inhibition": "inactive: -2.48%"}, {"molecule": "COc1cccc(C(c2nnnn2C2CCCCC2)N2CCC(n3c(=O)[nH]c4ccccc43)CC2)c1OC", "note": "(stereo not given)", "inhibition": "inactive: 1.8%"}, {"molecule": "CC(=O)N(c1ccccc1)C1CCNCC1", "inhibition": "inactive: -5.45%"}, {"molecule": "CCC(c1nnnn1C1CCCCC1)N1CCC(n2c(=O)[nH]c3ccccc32)CC1", "note": "(stereo not given)", "inhibition": "inactive: -0.468%"}, {"molecule": "COc1cc(OC)cc(C(=O)NCC2(N3CCCCC3)CCCCC2)c1", "inhibition": "inactive: 3.7%"}]}]}
